Test results as given in US20150196531A1, “Methods and Compositions For Treating Sleep-Related Breathing Disorders” (Sunovion Pharmaceuticals Inc., priority 2007, published 2015).

Chains of the proteins cited; added tags and fusions are not shown.
UniProt P31645, whole entry: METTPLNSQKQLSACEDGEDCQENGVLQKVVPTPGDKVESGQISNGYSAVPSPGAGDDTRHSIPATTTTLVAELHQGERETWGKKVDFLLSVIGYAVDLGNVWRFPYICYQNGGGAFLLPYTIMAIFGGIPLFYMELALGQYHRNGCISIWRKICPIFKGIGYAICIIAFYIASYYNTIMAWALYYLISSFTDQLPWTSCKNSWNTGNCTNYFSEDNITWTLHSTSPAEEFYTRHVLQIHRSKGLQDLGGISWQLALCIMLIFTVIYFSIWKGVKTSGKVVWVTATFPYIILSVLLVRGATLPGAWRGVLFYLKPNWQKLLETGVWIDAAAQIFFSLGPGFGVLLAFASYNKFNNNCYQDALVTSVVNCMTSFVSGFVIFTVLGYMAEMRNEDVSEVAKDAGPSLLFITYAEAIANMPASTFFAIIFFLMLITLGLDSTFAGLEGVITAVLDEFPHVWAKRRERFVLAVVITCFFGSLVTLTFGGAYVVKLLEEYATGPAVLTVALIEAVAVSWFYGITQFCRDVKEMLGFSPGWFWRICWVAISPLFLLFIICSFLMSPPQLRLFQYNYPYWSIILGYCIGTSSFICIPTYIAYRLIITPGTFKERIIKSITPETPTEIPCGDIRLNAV
UniProt P23975, whole entry: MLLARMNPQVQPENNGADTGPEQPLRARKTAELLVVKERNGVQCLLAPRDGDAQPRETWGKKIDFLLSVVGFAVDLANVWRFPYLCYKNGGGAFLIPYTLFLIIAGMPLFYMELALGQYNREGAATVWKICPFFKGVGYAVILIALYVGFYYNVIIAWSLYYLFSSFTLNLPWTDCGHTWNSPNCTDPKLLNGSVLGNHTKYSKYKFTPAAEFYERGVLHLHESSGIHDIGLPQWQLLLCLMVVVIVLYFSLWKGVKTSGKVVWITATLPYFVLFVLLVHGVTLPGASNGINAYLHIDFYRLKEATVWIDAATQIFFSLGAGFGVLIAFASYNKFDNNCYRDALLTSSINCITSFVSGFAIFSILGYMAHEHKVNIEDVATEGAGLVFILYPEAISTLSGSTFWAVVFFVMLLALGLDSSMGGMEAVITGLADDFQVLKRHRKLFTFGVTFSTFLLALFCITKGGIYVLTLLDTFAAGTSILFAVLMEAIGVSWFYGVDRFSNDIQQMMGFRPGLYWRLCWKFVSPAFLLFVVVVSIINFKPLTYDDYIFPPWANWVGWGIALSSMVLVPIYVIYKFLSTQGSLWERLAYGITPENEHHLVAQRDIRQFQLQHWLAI
UniProt Q01959, whole entry: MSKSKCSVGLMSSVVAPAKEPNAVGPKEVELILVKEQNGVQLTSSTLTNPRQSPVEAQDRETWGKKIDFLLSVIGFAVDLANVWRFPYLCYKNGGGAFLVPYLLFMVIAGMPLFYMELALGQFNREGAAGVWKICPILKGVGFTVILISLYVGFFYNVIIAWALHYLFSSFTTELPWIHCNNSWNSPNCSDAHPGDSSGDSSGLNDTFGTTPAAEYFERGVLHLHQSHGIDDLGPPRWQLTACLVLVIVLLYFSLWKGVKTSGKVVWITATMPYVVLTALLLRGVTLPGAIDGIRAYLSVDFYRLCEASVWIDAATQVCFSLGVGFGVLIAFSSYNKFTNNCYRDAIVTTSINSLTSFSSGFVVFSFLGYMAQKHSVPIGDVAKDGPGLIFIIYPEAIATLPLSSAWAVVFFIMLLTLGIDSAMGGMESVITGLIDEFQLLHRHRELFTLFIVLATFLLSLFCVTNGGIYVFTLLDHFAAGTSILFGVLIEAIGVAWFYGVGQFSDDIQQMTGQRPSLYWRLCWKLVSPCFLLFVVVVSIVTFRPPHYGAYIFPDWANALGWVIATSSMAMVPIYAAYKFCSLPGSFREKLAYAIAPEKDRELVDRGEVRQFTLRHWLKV
UniProt P23977, whole entry: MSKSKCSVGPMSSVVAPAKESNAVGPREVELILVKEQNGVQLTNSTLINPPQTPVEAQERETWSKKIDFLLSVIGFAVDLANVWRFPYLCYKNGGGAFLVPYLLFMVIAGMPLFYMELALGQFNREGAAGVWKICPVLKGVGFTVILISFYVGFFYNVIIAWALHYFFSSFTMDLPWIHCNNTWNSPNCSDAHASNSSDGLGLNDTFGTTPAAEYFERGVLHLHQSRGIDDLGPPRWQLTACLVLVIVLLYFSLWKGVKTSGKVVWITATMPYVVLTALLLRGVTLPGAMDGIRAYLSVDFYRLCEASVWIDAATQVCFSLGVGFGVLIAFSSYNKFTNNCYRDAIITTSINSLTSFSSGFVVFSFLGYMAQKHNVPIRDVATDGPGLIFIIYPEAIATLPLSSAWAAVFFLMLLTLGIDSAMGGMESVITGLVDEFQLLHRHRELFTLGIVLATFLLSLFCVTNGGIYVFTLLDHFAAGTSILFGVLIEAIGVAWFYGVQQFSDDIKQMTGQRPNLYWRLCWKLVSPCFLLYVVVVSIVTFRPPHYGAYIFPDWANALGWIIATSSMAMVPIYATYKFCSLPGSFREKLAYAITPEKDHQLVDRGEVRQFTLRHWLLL

Legend:
[1] = biological target: recombinant human serotonin transporter expressed in HEK-293 cells (Homo sapiens, UniProt P31645); conditions: read-out: Inhibition of monoamine uptake, Human 5-HT, IC50
[2] = biological target: recombinant human norepinephrine transporter expressed in MDCK cells (Homo sapiens, UniProt P23975); conditions: read-out: Inhibition of monoamine uptake, Human NE, IC50, [3H]Norepinephrine uptake
[3] = biological target: T1, cloned human serotonin receptor expressed in HEK293 cells (5-HT transporter) (Homo sapiens, UniProt P31645); test: Radioligand binding assay, [3H]-paroxetine
T1 construct: expressed in transfected cells; host or cells: HEK293
Experimental: (§1) The IC50 values (and calculated Ki values) for inhibition of the binding of [^125I]-RTI-55 to the cloned human norepinephrine receptor expressed in MDCK cells were determined according to Shearman L P, McReynolds A M, Zhou F C, Meyer J S, “Relationship between [125I]RTI-55-labeled cocaine binding sites and the serotonin transporter in rat placenta,” American Journal of Physiology 275: C1621-9 (1998).

[4] = biological target: T2, cloned human norepinephrine receptor expressed in MDCK cells (NE transporter) (Homo sapiens, UniProt P23975); test: Radioligand binding assay, [125I]-RTI-55; conditions: [125I]-RTI-55, MDCK cells
T2 construct: expressed in transfected cells; host or cells: MDCK
Experimental: as §1

[5] = biological target: recombinant human dopamine transporter expressed in CHO-K1 cells (Homo sapiens, UniProt Q01959); conditions: read-out: Inhibition of monoamine uptake, Human DA, IC50
[6] = biological target: T3, dopamine uptake, rat reuptake transporter (synaptosomes from male Wistar rat striatum) (Rattus norvegicus, UniProt P23977); test: Dopamine functional uptake assay for rat reuptake transporter (synaptosomes); assay type: biochemical; conditions: [3H]-dopamine uptake, read-out: Inhibition of monoamine uptake, Rat DA, IC50
T3 construct: synaptosomes isolated in a 0.32 M sucrose buffer from a male Wistar rat striatum; from tissue; host or cells: male Wistar rat striatum synaptosomes
Experimental: Quantification of dopamine uptake was performed using synaptosomes isolated in a 0.32 M sucrose buffer from a male Wistar rat striatum. The uptake of radiolabelled dopamine by synaptosomes (20 μg of proteins/point) was allowed by incubating them for 15 minutes at 37° C. in the presence of test compounds and [^3H]-dopamine (0.1 μCi/point). The experiment was performed in a deep well.
This incubation buffer was oxygenated for 5 minutes before incubation.
See, Jankowsky et al., “Characterization of sodium-dependent [^3H]GBR-12935 binding in brain: a radioligand for selective labeling of the dopamine transport complex,” J. Neurochem. 46:1272-1276 (1986).

| Compound | IC50 [1] [nM] | IC50 [2] [nM] | Ki ([3]; calculated Ki, read-out: (Ki) for inhibition of specific binding, 5-HT transporter) [nM] | IC50 ([3]; read-out: IC50 for inhibition of specific binding, 5-HT transporter) [nM] | IC50 ([4]; read-out: IC50 for inhibition of specific binding, NE transporter) [nM] | Ki ([4]; calculated Ki, read-out: (Ki) for inhibition of specific binding, NE transporter) [nM] | IC50 [5] [nM] | IC50 [6] [nM] |
| --- | --- | --- | --- | --- | --- | --- | --- | --- |
| CN(C)CC(c1ccc(O)cc1)C1(O)CCCCC1 (racemic) [Racemic O-desmethylvenlafaxine, O-desmethylvenlafaxine] | 76 | 1350 |  |  |  |  |  |  |
| CN(C)CC(c1ccc(O)cc1)C1(O)CCCCC1 (single isomer, unassigned; (+)) [(+)-O-desmethylvenlafaxine] | 23 | 1920 | 38.3 | 235 | 10600 | 10500 |  |  |
| CN(C)CC(c1ccc(O)cc1)C1(O)CCCCC1 (single isomer, unassigned; (-)) [(−)-O-desmethylvenlafaxine] | 62 | 385 |  |  |  |  | 5390 |  |
| COc1ccc(C(CN(C)C)C2(O)CCCCC2)cc1 (stereo not drawn) [Venlafaxine, reference compound] |  |  |  |  |  |  |  | 7000 |
